Laboratory results from ChEMBL document CHEMBL3627709, “Discovery of a Novel, Potent Spirocyclic Series of γ-Secretase Inhibitors” (J Med Chem, 2015).

Sequences of proteins named here, by UniProt entry; tags and fusion partners are left off.
UniProt P08684, whole entry, looked up: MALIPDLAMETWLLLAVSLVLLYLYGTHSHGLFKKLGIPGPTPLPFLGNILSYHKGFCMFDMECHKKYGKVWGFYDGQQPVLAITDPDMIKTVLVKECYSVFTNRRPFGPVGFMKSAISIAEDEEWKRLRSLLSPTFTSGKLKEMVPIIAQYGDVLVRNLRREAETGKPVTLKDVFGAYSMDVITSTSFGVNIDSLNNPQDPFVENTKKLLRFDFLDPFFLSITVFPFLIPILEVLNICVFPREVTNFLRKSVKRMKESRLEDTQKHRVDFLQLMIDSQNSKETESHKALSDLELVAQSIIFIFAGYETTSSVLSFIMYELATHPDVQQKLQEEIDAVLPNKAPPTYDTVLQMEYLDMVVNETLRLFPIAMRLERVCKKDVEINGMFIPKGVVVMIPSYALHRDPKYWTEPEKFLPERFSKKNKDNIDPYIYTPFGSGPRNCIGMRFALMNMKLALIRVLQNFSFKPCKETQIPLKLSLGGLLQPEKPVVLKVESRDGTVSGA
UniProt P10635, whole entry, looked up: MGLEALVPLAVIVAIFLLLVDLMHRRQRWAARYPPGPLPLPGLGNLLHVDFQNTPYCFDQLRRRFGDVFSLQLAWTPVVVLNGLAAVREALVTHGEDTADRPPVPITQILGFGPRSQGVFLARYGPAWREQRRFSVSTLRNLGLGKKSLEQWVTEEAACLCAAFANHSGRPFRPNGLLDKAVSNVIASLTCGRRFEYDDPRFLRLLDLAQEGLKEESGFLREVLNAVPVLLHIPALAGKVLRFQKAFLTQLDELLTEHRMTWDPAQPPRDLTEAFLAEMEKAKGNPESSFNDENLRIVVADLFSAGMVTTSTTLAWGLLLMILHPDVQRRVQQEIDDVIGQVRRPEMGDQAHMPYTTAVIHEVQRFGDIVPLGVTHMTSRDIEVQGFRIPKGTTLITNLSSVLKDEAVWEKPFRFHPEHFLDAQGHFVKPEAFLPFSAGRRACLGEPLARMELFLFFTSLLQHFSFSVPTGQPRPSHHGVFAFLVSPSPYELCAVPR
UniProt P11712, whole entry, looked up: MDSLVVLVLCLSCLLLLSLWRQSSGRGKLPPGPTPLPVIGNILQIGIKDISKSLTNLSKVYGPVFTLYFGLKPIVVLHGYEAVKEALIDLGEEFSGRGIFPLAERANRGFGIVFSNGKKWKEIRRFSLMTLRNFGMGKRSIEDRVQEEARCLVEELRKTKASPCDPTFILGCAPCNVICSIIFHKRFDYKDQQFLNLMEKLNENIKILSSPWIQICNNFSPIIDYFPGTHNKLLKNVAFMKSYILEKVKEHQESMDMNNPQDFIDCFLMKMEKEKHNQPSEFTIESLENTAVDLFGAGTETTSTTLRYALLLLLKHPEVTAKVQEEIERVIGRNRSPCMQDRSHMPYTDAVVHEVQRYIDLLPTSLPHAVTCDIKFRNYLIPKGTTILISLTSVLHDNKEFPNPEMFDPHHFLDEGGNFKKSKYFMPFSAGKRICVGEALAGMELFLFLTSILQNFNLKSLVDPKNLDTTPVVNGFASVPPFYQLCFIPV

How the values were obtained:
Cytochrome P450 3A4 [1] = target: T1, Cytochrome P450 3A4 (Homo sapiens, UniProt P08684); test: Inhibition of CYP3A4 (unknown origin) co-incubated with substrate and protein; assay type: ADME
Cytochrome P450 3A4 [2] = target: T1, Cytochrome P450 3A4
Cytochrome P450 2D6 [3] = target: T2, Cytochrome P450 2D6 (Homo sapiens, UniProt P10635); test: Inhibition of CYP2D6 (unknown origin) co-incubated with substrate and protein; assay type: ADME
Cytochrome P450 2D6 [4] = target: T2, Cytochrome P450 2D6
Cytochrome P450 2C9 [5] = target: T3, Cytochrome P450 2C9 (Homo sapiens, UniProt P11712); test: Inhibition of CYP2C9 (unknown origin) co-incubated with substrate and protein; assay type: ADME
Cytochrome P450 2C9 [6] = target: T3, Cytochrome P450 2C9

Measured: IC50

CP1(=O)OCC[C@]2(CCC[C@@]3(S(=O)(=O)c4ccc(Cl)cc4)c4c(F)ccc(F)c4OC[C@@H]23)CO1 (some centres not stated)
> 20 µM: all assays above

CP1(=O)OCC2(CCC[C@@]3(S(=O)(=O)c4ccc(Cl)cc4)c4c(F)ccc(F)c4OC[C@@H]23)CO1 (some centres not stated)
> 20 µM: all assays above
